Key:
[1] = Half life in human pooled hepatic microsomes at 1 uM up to 120 mins in presence of NADPH; type: ADME, Liver, microsome; conditions: 2 h
[2] = Ratio of drug level in brain to plasma in C57BL/6 mouse at 10 mg/kg, po administered as single dose measured at 0.5 to 24 hrs post dose by LC-MS analysis; type: ADME, organism-based

`Clc1ccc(-n2c(-c3ccccc3Cl)nc3c(N4CCN(Cc5ccccc5Cl)CC4)ncnc32)cc1` gave a t1/2 [1] of 1.5 h and a BPR [2] of 0.03.

— ChEMBL document CHEMBL4219244, “Blocking Alcoholic Steatosis in Mice with a Peripherally Restricted Purine Antagonist of the Type 1 Cannabinoid Receptor” (J Med Chem, 2018)
